# scFv variants of Ab-14 (light chain) against a SARS-CoV-2 spike peptide

The target is the same throughout: PDVDLGDISGINAS, from the HR2 region of SARS-CoV-2 spike.

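Designed CDR sequences, proposed from the first random library and measured here. Their group label is 14L_En_Gibbs (En: ensemble of fine-tuned language models; Gibbs: Gibbs sampling). The assay is AlphaSeq: two haploid yeast populations carry antibody and antigen on their surface. After mating in shaken culture at 30 °C for 16 h, diploids were selected and their barcode pairs sequenced. A regression on co-assayed BCL2-family reference pairs converts the normalised counts of each replicate to an apparent Kd. Each pool was mated in six replicate cultures.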

The variants keep the heavy chain, the linker and the frameworks of Ab-14 (scFv order VH, a 15-residue (Gly4Ser)3 linker, VL).
VH: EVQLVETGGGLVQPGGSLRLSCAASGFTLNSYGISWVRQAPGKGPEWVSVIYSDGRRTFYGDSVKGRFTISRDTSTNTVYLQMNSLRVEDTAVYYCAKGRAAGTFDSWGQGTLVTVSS
VL: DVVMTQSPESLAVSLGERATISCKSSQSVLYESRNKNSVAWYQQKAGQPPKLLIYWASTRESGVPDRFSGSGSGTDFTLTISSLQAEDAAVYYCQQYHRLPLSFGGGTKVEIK

Variants are written as CDR1, CDR2 and CDR3 of the light chain (limits as in the source). Parent: KSSQSVLYESRNKNSVA, WASTRES, QQYHRLPLS.
Numbers give log10(Kd / nM), so 0 is 1 nM and 3 is 1 µM. Smaller is tighter.
An entry "ND" has no value in the source: the pair was not observed among the diploids in that replicate. This suggests poor binding but is not conclusive.

MLTMFNNENQGWSNNIA / DTNNVQE / QQYSRLPFQ: 0.86, 0.95, 0.98, 1.09, 1.24, 1.17 (controls 1 of 18).
AHDHTEGSGKNADANVA / GDEQRAP / QQYHHLPLS: ND, 1.33, 1.06, 1.22, 3.26, 2.57 (controls 1 of 18).
KMREDFYHGQVETSAIA / DGEHLNM / QQYSHLPLS: 0.36, 0.16, 0.41, 0.17, 0.42, 0.59 (controls 0 of 18).
KLMMFMQEIGIMKNNIA / NLEIGAR / QQYAQLPLV: ND, ND, ND, ND, ND, ND (controls 0 of 18).
KLQTLTYTANIGESSVA / DVNVHVD / QQYFRLPLS: ND, 1.17, 1.55, 0.37, ND, ND (controls 0 of 18).
MFDQQTMNENDKNNSVA / EENHLYN / QQYAQLPLI: ND, 2.85, 2.74, ND, ND, 2.42 (controls 0 of 18).
KIEQLVFPMGKDWHSIA / NANTLLA / QQYYYLPLM: ND, 2.35, 2.19, 1.68, 2.07, 2.17 (controls 1 of 18).
KLMDNPWVEDKYRNNIA / DINVKAD / QHYHRLPLL: 2.60, 2.22, 2.01, 2.63, 1.79, 2.51 (controls 3 of 18).
AEDHMEGSGKNSDANVA / QAEQRAP / QQYHHLPLM: 0.74, 0.34, 0.35, 0.82, 0.38, 0.51 (controls 0 of 18).
NIVGRAVMQDSGRNAIA / NAHARCT / QQYFRLPLT: 0.65, 0.97, 0.62, 0.72, 0.75, 0.78 (controls 0 of 18).
KIRVNQYMQSEMESNIA / GTSVRHS / QQYFHLPLT: 0.52, 0.69, 0.21, 0.28, 0.31, 0.39 (controls 1 of 18).
NMQLQVRNGNNNKYNIA / AEMKRVY / QQYQRLPLS: 2.06, 1.95, 1.19, 1.60, 1.42, 1.69 (controls 0 of 18).
KLRHHNLDFYEHENNIA / GESMRAV / QQYYRLPLN: 1.70, 1.31, 1.35, 1.83, 2.22, 1.76 (controls 0 of 18).
RIQMGDLEGRTAWNNIA / NMEELYR / QQYVRLPLY: 0.77, 0.51, 0.79, 0.11, 1.02, 0.72 (controls 1 of 18).
HIQQVKAEQKNAENNIA / SGAQRVW / QQYSRLPFI: 0.41, 0.45, 0.29, 0.30, 0.25, 0.51 (controls 1 of 18).
KMVKAESEGDRHAANIA / NANKATD / QQYYRLPLA: 0.78, 0.69, 0.53, 0.69, 0.38, 0.91 (controls 0 of 18).
SLSMNQGEESSHWENVA / QGDIAEN / QDYSRLPLI: ND, 2.06, 3.41, 2.49, 2.26, ND (controls 1 of 18).
KIELSNSVSLRGTRAIA / QGSARAH / QQYHRLPLT: 2.21, 2.39, 2.56, 1.82, 2.07, 2.45 (controls 0 of 18).
SLEAFEYQIMKDLNNIA / NTNTRVN / QQYMRLPFM: 0.30, 0.35, 0.15, -0.03, 0.08, 0.38 (controls 0 of 18).
SIEWEEWNGQSVKHNIA / ADTQVLE / QQYFRLPFT: 1.17, 0.95, 0.82, 0.58, 0.76, 1.09 (controls 1 of 18).
NLMNGGSELSVWSRNIA / DANIRES / QQYFRLPLL: 0.19, 0.04, -0.25, -0.10, 0.01, 0.21 (controls 1 of 18).
KMNGYTLQPNMPHNNVA / HGTMREA / QQYARIPLM: 1.06, 1.05, 1.11, 0.79, 0.86, 1.24 (controls 0 of 18).
SLHLYTLTEKNANNSIA / EKSYRAY / QQYSHLPLV: 1.02, 1.06, 0.99, 0.97, 0.76, 1.53 (controls 3 of 18).
TFDTGYRFGALNTDSIA / HAEMRVA / QMYYRLPLT: ND, ND, 0.42, ND, ND, ND (controls 0 of 18).
MIFYGQERDIAHESSIA / NDMARVK / QQYHRLPLS: 2.06, 1.02, ND, 1.75, 1.98, 1.91 (controls 1 of 18).
RLTSHESESKAADASVA / DENTRGD / QQYHRLPLF: 1.37, 1.71, 1.65, 1.21, 1.98, 2.20 (controls 2 of 18).
RLTEHTYMRAYANAAVA / DASTRND / QQYHRLPLE: 0.59, 0.57, 0.06, 0.08, 0.30, 0.47 (controls 1 of 18).
KFNMEVQGQNNNKYNIA / AAHQLEY / QTYYRLPLV: 1.81, 1.32, 1.11, 1.35, 1.02, 1.77 (controls 1 of 18).
KFKELFNMWARNHGNVA / DADERNV / QQYSRLPIS: 0.43, 0.38, 0.31, 0.57, 0.34, 0.54 (controls 0 of 18).
MMSMFPNEPTIDSNAIA / DHVQRNT / QQYDRLPLS: ND, ND, ND, ND, ND, ND (controls 1 of 18).
KIYELGKGSIKTNNNIA / QTDIRML / QSYNRLPLS: 1.58, 1.34, 1.25, 1.50, 1.38, 2.02 (controls 3 of 18).
SSNGNLRMGERNKNHVA / STDVRES / QQYSRLPLV: 0.90, 0.67, 0.61, 0.59, 0.44, 0.83 (controls 1 of 18).
ILEENSDDITEQQNSIA / ETQMVYS / QQYHRLPLA: 1.82, 2.52, 1.75, 2.38, 1.40, 2.05 (controls 0 of 18).
RIQMTDLEGRMAWNNIA / DNEESYR / QQYVRLPLY: ND, ND, ND, ND, ND, ND (controls 0 of 18).
QLAVERGQEYKAGAAIA / GKTEKLH / QQYAMLPLS: 0.83, 0.79, 0.79, 0.51, 0.56, 0.67 (controls 2 of 18).
NLGYQQDGNGLQRQAVA / NVNMKEY / QQYGRLPLM: 0.54, 0.47, 0.26, 0.17, 0.03, 0.35 (controls 0 of 18).
QLPFYRGDGYLQKNNVA / EGTERSH / QQYMRLPLF: 0.09, -0.42, -0.55, -0.48, -0.33, -0.16 (controls 3 of 18).
HFAKQLQSLYNSKQNVA / NASTVMT / QHYNRLPLS: 0.50, 0.92, 0.66, 0.73, 0.61, 0.57 (controls 0 of 18).
KLGEKNRMNGMANKNVA / ADNTRVD / QEYHRLPLI: 0.76, 0.64, 0.49, 0.62, 0.83, 0.82 (controls 3 of 18).
KLSDPMVEWIANQSAVA / EHADTQH / QQYARLPLT: ND, ND, ND, ND, ND, ND (controls 0 of 18).
VLSDTIENQADEADNIA / DATETSK / QQYYRLPLS: 1.23, 0.85, 0.61, 0.64, 0.88, 0.66 (controls 2 of 18).
KLNDDFQVHERNNGSVA / DAIISEA / QQYARLPLI: 0.53, 0.63, 0.83, 0.59, 0.66, 0.92 (controls 1 of 18).
MLGNKPTSFRNNKNAIA / DDEARTS / QQYDRLPLS: 0.88, 1.25, 0.89, 1.42, 1.38, 1.29 (controls 0 of 18).
MLTMFANENAGKSNNIA / DTNQLNT / QQYQRLPFM: 0.14, 0.22, -0.02, 0.12, 0.14, 0.35 (controls 0 of 18).

Top 3 of the variants detected in all replicates, tightest first:

{"CDR-L1": "QLPFYRGDGYLQKNNVA", "CDR-L2": "EGTERSH", "CDR-L3": "QQYMRLPLF", "log10 Kd, replicates": "0.09, -0.42, -0.55, -0.48, -0.33, -0.16", "control signals": "3 of 18"}
{"CDR-L1": "NLMNGGSELSVWSRNIA", "CDR-L2": "DANIRES", "CDR-L3": "QQYFRLPLL", "log10 Kd, replicates": "0.19, 0.04, -0.25, -0.10, 0.01, 0.21", "control signals": "1 of 18"}
{"CDR-L1": "MLTMFANENAGKSNNIA", "CDR-L2": "DTNQLNT", "CDR-L3": "QQYQRLPFM", "log10 Kd, replicates": "0.14, 0.22, -0.02, 0.12, 0.14, 0.35", "control signals": "0 of 18"}

A sequence measured in both rounds can read differently, since the two assays cover different ranges.
Empty control strains, which show no peptide, gave a signal in 4% of pairings with all light chain designs; the median was 2.64 and 95% of these signals were weaker than 1.59. No background was subtracted. The control count says in how many pairings with the empty strains this scFv gave a signal.
In the paper, a design with two or fewer of six values counts as a poor binder.
The parent sequence was in this pool as ten entries: three were never detected, three once, and four in most replicates, with averages from 0.34 to 2.37.

Values reported by Li et al. 2023, doi:10.1038/s41467-023-39022-2 (FLAb copy).